This note sets out measurements from PubChem BioAssay AID687016 (The Scripps Research Institute Molecular Screening Center, 2013).

The chains behind the UniProt entries cited, without tags or fusion partners.
UniProt Q96T88, whole entry: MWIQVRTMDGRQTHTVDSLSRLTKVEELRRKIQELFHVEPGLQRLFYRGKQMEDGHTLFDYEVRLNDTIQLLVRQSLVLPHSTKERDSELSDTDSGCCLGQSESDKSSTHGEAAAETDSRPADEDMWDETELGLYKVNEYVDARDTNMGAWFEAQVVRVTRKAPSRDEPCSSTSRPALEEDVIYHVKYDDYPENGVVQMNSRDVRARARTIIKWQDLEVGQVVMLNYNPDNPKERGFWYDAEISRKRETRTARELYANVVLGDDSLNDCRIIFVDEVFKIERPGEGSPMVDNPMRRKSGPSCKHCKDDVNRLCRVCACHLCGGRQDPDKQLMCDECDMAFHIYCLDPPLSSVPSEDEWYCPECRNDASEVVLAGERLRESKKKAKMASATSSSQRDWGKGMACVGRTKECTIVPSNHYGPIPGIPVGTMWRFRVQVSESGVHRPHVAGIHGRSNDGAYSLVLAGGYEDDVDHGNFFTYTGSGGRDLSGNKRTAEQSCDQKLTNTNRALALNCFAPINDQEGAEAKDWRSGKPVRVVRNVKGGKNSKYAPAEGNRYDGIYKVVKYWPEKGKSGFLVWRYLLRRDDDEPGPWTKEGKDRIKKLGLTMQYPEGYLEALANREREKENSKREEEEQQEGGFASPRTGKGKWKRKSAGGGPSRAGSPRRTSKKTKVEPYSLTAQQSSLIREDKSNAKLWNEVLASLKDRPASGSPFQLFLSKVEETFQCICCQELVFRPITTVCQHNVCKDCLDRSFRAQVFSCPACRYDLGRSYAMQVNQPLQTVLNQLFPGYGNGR

Only a part is listed here, and it is no random draw. Activity calls are given as the source filed them. Cut-off read from the data, not from the text of the source: active = inhibition above about 21%; inactive = the rest.

In the assay the target is E3 ubiquitin-protein ligase UHRF1 (Homo sapiens) (UniProt Q96T88). The experiment in a line: blockers of UHRF1 binding to methyl-oligo – biochemical, TR-FRET, human UHRF1, single concentration, counter-screen for MBD2 inhibitor project, primary screen (AID 687016).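 Note: UHRF1 SRA domain binding a hemimethylated CpG hairpin DNA probe; 0% = median of test compound wells and 100% = reference inhibitor.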 To be noted: UHRF1 binding to methylated oligo, at 4.4 µM, hits give high values.
The term inhibition denotes the relative decrease from the control value, in per cent. In the case of `O=C(NCC1(N2CCCCC2)CCCCC1)c1cncc(Br)c1`, the inhibition is inactive: -0.99%.
The value for `CSc1ccc(C(=O)NCC2(N3CCOCC3)CCCCC2)cc1` was inactive: -0.5%; that for `O=C(NCC1(N2CCCCC2)CCCCC1)c1cccc([N+](=O)[O-])c1` was inactive: -0.33%.
The value for `CCN1CCC(Nc2ccc(Cl)cc2)CC1` was inactive: 0.73%; that for `O=c1[nH]c2ccccc2n1C1CCN(C(c2ccccc2OC(F)(F)F)c2nnnn2C2CCCC2)CC1` (centres undefined) was inactive: 2.64%.
As for `N#CC1(Nc2ccccc2)CCN(CCc2ccccc2)CC1`, the inhibition is inactive: -4.62%.
The value for `CC(C)(C)n1nnnc1C(c1ccccc1OC(F)(F)F)N1CCC(n2c(=O)[nH]c3ccccc32)CC1` (centres undefined) was inactive: -2.59%.
The value for `O=C(NCC1(N2CCCCC2)CCCCC1)c1ccc(OC(F)F)cc1` was inactive: 2.47%; that for `CN1CCN(CCOC(=O)C(O)(c2ccccc2)c2ccccc2)CC1` was inactive: -0.03%; that for `COc1ccc(NC2CCN(C(=O)OC(C)(C)C)CC2)cc1` was inactive: 0.1%.
Consider `CC(C)c1ccc(C(=O)NCC2(N3CCOCC3)CCCCC2)cc1`, for which the inhibition was inactive: 4.93%.
For the molecule `CCCCn1nnnc1C(c1cccc2ccccc12)N1CCC(n2c(=O)[nH]c3ccccc32)CC1` (centres undefined), the inhibition is inactive: -0.48%.
The value for `COc1cc(C(=O)NCC2(N3CCCCC3)CCCCC2)ccc1OC(F)F` was inactive: -1.37%.
The value for `O=C(NCC1(N2CCOCC2)CCCCC1)c1cc(=O)[nH]c2ccccc12` was inactive: -0.4%.
The value for `O=C(NCC1(N2CCCCC2)CCCCC1)c1cccc(C(F)(F)F)c1` was inactive: -1.29%.
For `O=P1(N(CCCl)CCCl)SCCCS1`, the inhibition is inactive: 0.2%.
The value for `CCCCn1nnnc1C(c1cc2ccccc2o1)N1CCC(n2c(=O)[nH]c3ccccc32)CC1` (centres undefined) was inactive: -2.68%; that for `CCCCOc1ccc(C(=O)NCC2(N3CCOCC3)CCCCC2)cc1` was inactive: -1.01%.
On to `O=C(NCC1(N2CCCCC2)CCCCC1)c1ccc(F)cc1`, for which the inhibition was inactive: -0.81%.
For the molecule `COc1ccc(NC2CCN(CCc3ccccc3)CC2)c(OC)c1`, the inhibition was inactive: -5.66%.
`CCOC(=O)N1CCC(Nc2ccc(F)cc2)CC1`: the inhibition was inactive: -0.2%.
Take `CCOc1ccc(C)cc1CN(CCCl)CCCl`: the inhibition is inactive: 1.78%.
On to `CC(C)(C)n1nnnc1C(c1ccccc1)N1CCC(n2c(=O)[nH]c3ccccc32)CC1` (centres undefined), for which the inhibition was inactive: 0.46%.
For the molecule `O=C1CCN(Cc2ccccc2)CC1`, the inhibition was inactive: 4.75%.
For `O=c1[nH]c2ccccc2n1C1CCN(C(c2cccc3ccccc23)c2nnnn2C2CCCC2)CC1` (centres undefined), the inhibition was inactive: -1.3%.
The value for `CCOC(=O)N1CCC(Nc2cccc(C)c2)CC1` was inactive: -2.28%; that for `COc1cc(C(=O)NCC2(N(C)C)CCCCC2)ccc1OC(F)F` was inactive: 4.32%.
The value for `O=c1[nH]c2ccccc2n1C1CCN(C(c2ccccc2)c2nnnn2C2CCCCC2)CC1` (centres undefined) was inactive: 3.15%; that for `CSc1ccccc1C(=O)NCC1(N2CCCCC2)CCCCC1` was inactive: 0.03%.
The value for `Cc1cccc(NC2(C#N)CCN(Cc3ccccc3)CC2)c1` was inactive: 3.19%; that for `O=C(NCC1(N2CCCCC2)CCCCC1)c1ccc(=O)[nH]c1` was inactive: -0.14%; that for `CCCCn1nnnc1C(CC)N1CCC(n2c(=O)[nH]c3ccccc32)CC1` (centres undefined) was inactive: 2.3%.
For the molecule `O=C(NCC1(N2CCCCC2)CCCCC1)c1cccs1`, the inhibition was inactive: 0.53%.
For `CCCCn1nnnc1C(c1cccs1)N1CCC(n2c(=O)[nH]c3ccccc32)CC1` (centres undefined), the inhibition is inactive: -2.98%.
The value for `COc1ccc(C(=O)NCC2(N3CCCCC3)CCCCC2)cc1` was inactive: -1.42%.
The value for `COc1ccc(C(=O)NCC2(N3CCCCC3)CCCCC2)c(OC)c1OC` was inactive: -0.07%; that for `CC(C)(C)OC(=O)N1CCC(N(C(=O)c2ccccc2)c2ccc(F)cc2)CC1` was inactive: 0.77%; that for `CCC(c1nnnn1C1CCCC1)N1CCC(n2c(=O)[nH]c3ccccc32)CC1` (centres undefined) was inactive: -1.74%.
Regarding `CCOC(=O)N1CCC(Nc2ccc(OC)cc2)CC1`, the inhibition was inactive: -1.91%.
As for `CCCCn1nnnc1C(c1ccc(OC)cc1)N1CCC(n2c(=O)[nH]c3ccccc32)CC1` (centres undefined), the inhibition is inactive: 0.59%.
For the molecule `N#CC1(Nc2ccccc2)CCN(Cc2ccccc2)CC1`, the inhibition is inactive: -0.51%.
The value for `O=C(NCC1(N2CCCCC2)CCCCC1)c1ccc(Cl)s1` was inactive: 3.33%; that for `O=C(OC1CN2CCC1CC2)C1c2ccccc2Oc2ccccc21` (centres undefined) was inactive: -2.83%.
Take `O=c1[nH]c2ccccc2n1C1CCN(C(c2cc3ccccc3o2)c2nnnn2C2CCCCC2)CC1` (centres undefined): the inhibition was inactive: 2.77%.
The value for `COc1ccc(Cl)cc1C(=O)NCC1(N2CCOCC2)CCCCC1` was inactive: -0.16%; that for `O=C(NCC1(N2CCOCC2)CCCCC1)c1cc2ccccc2o1` was inactive: 2.26%.
The value for `O=C(NCC1(N2CCCCC2)CCCCC1)c1ccc(Cl)nc1` was inactive: 8.4%; that for `O=c1[nH]c2ccccc2n1C1CCN(C(c2ccccc2OC(F)(F)F)c2nnnn2C2CCCCC2)CC1` (centres undefined) was inactive: -0.08%.
The value for `Cc1cc(C)cc(N(C(=O)c2ccccc2)C2CCN(C(=O)OC(C)(C)C)CC2)c1` was inactive: 0.55%.
